Assay results reported in US6689753B1, “β sheet breaker peptide analogs that inhibit β pleated sheet formation in amyloid β-peptide” (Axonyx, Inc., priority 1999, dated 2004).
Residues, ends and D or L forms follow the SMILES beside them.

Amino acid sequences for entries named in this document (tags omitted). Residues count along the entry.
UniProt P05067, 672-713: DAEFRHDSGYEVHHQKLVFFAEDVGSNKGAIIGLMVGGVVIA

Molecular target: Aβ1-42 amyloid deposits (Homo sapiens, UniProt P05067)
Conditions: 1.3 mg infused into lateral ventricle over three weeks, starting 7 days after Aβ1-42, FIG. 6

CC(=O)N[C@@H](CC(C)C)C(=O)N1CCC[C@H]1C(=O)N[C@@H](Cc1ccccc1)C(=O)N[C@@H](Cc1ccccc1)C(=O)N[C@@H](CC(=O)O)C(N)=O [Ac-iAβ5-Am, Ac-Leu Pro Phe Phe Asp-Am] (Ac-LPFFD-NH2)
dissolution of preformed amyloid plaque in the amygdala: 30%
dissolution of the deposits located near the ventricle: 83%
